This note sets out measurements from patent US6495137.

Several values for one entry are separate records, joined by “and”; a condition that tells them apart may be missing. Equal entries are not always repeated.

The target in test [1] is bovine submaxillary mucin (BSM), TAG-72-positive (bovine). Kind of test: radiolabeled antibody bound to BSM beads.
The target is the same in test [2]. Kind of test: relative affinity constant, competition RIA on BSM, Scatchard analysis.
Test [3] shares this target. Kind of test: competition RIA, 125I-labeled nCC49 as competitor, BSM as target antigen.
Test [4] addresses tumor-associated glycoprotein-72 (TAG-72) (human). Kind of test: competition ELISA on TAG-72 plate, unlabeled CC49 mixed 1:1 with biotin CC49 as competitor; residual biotin CC49 signal (LB negative control 0.359).
For test [5] the target is unchanged. Kind of test: competition ELISA on TAG-72 plate, sample mixed 1:1 with biotin CC49 as competitor; residual biotin CC49 signal (LB negative control 0.359).

“CC49 murine monoclonal antibody (native CC49)” showed a percent bound in test [1] greater than 85%. The same substance gave a Ka in test [2] of 1.8e+08 M⁻¹. Besides, the amount required for 50% competition in test [3] amounted to 1.5 mg. Also, in test [4], the OD 405 nm - OD 450 nm Value at 50 minutes is 0.076 OD.

On to CC49 Fab, for which the OD 405 nm - OD 450 nm Value at 50 minutes in test [5] came to 0.078 OD.

For cCC49 chimeric CC49 monoclonal antibody, the percent bound in test [1] was > 85% and 90%. The Ka in test [2] turned out to be 1.2e+08 M⁻¹. This substance registered an amount required for 50% competition in test [3] of 2 mg.
